From ChEMBL document CHEMBL1139598, “A discriminant model constructed by the support vector machine method for HERG potassium channel inhibitors” (Bioorg Med Chem Lett, 2005) come the findings set out here.

By UniProt entry, the sequences of proteins in these tests, tags left out. Where a name states a change or a piece, a line headed by the entry shows the natural chain unless it says otherwise.
UniProt Q12809: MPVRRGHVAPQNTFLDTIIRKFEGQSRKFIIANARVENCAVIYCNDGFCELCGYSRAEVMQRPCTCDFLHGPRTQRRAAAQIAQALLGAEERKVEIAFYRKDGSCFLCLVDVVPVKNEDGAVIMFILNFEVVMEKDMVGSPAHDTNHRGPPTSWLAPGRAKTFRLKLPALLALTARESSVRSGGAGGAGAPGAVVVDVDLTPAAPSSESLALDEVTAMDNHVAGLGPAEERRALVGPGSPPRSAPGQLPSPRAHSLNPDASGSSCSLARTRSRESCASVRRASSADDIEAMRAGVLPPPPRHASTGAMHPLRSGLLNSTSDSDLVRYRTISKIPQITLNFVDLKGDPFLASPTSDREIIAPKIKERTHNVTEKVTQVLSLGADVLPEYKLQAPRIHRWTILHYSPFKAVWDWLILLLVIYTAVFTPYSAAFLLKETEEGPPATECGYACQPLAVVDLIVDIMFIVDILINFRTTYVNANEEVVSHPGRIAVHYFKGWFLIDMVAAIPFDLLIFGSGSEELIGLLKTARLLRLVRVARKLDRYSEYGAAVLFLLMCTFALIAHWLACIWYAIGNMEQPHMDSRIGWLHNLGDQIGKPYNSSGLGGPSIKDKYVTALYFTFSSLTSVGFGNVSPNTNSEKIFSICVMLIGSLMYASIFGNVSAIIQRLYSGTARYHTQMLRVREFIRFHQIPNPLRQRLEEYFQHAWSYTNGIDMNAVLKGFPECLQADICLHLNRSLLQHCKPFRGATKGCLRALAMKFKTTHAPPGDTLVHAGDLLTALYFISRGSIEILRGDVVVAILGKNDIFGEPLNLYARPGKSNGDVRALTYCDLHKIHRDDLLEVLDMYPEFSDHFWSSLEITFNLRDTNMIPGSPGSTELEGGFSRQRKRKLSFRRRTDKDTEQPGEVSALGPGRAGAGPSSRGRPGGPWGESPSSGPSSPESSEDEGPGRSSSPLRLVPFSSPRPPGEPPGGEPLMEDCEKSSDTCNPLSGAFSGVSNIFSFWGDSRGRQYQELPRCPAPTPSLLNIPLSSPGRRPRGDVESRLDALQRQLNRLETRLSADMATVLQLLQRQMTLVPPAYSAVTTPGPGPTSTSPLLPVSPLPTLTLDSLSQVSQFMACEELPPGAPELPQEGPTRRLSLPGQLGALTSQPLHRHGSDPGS

In the experiment the target is Voltage-gated inwardly rectifying potassium channel KCNH2 (Homo sapiens, UniProt Q12809).

Structures are written as SMILES.

Consider `CN1CCCCC1CCN1c2ccccc2Sc2ccc([S+](C)[O-])cc21` (stereo unspecified) [MESORIDAZINE], for which the midpoint of inhibition, the IC50, lay at 550 nM.

As a reminder, the IC50 is the midpoint of a concentration-inhibition curve.
